Where only a bound is given, the exact number is not on record here.

For experiment [1], the target named is cyclophilin A (CYPA) (Homo sapiens, UniProt P62937). The experiment can be described thus: CYPA-compound binary complex formation by SPR. The conditions noted are these: read-out: CYPA Binding Affinity. How it is done: In order to determine the affinity of compounds of the invention for cyclophilin A (CYPA), we employed surface plasmon resonance binding analysis using the following reagents, instruments and protocol as supplied by the instrument manufacturer.
Reagents and Instrument • 1. Instrument: Biacore S200 (GE Healthcare Life Sciences) • 2. Running buffer: 1×HBS-P+ (1×HBS supplemented with 0.05% Tween20), pH7.4, and 2% DMSO. • 3. Ligand: CypA-Avi • 4. Analyte: Serial dilution of WDB compounds from 50 μM to 0 μM, 2-fold dilution, 10 points (10 mM stock concentration). • 5. Sensor kit: Biotin CAPture Kit (BR28-9202-34, GE Healthcare Life Sciences) • 6. Regeneration buffer: 1 volume of 1 M NaOH and 3 volumes of 8 M guanidine hydrochloride (supplied with CAPture Kit, BR28-9202-34, GE Healthcare Life Sciences)
Experimental Procedure • 1. Capture of CAPreagent: 2 μl/min for 60 seconds. • 2. Immobilization of ligand CypA: Use Fc1 as the reference cell; immobilize CypA at 4 μg/ml using 5 μl/min flowrate on Fc2 (60s), Fc3 (80s) and Fc4 (80s), respectively. • 3. Binding of analytes: Inject WDB compound dilutions sequentially at 50 μl/min for association of 60 seconds. And then let it dissociates in buffer at 50 μl/min for 60 seconds. • 4. Regeneration: 2 injections of regeneration buffer at 30 μl/min for 60 seconds to regenerate the chip surface. • 5. Solvent correction: Run solvent correction at beginning and the end of the run. If run more than 6 compounds, add additional solvent correction every 6 compounds. • 6. Data fitting with built-in Biacore Evaluation Software: Steady-state fitting.

The target in experiment [2] is BRAF-GTP-KRAS-G12C complex (Homo sapiens, UniProt P01116+P62937, G12C). The experiment can be described thus: KRAS-BRAF complex disruption through competition with CYPA-compound by TR-FRET. Conditions: read-out: BRAF-GTP-KRAS-G12C Disruption; biochemical BRAF-KRAS G12C-GTP disruption assay EC50, with CYPA. How it is done: In this example, TR-FRET was used to measure the compound-facilitated disruption of a KRAS-BRAF complex. A mixture of tagless Cyclophilin A, His6-KRAS G12C-GMP-PNP, and GST-BRAF RAS binding domain was added to a 384-well assay plate containing compounds of the invention and incubated for 3 hours. A mixture of Anti-His Eu-W1024 and anti-GST allophycocyanin was then added and the reaction was incubated for an additional 1.5 hours. TR-FRET signal was read on an EnVision microplate reader (Perkin Elmer, Ex 320 nm, Em 665/615 nm). Compounds that facilitate disruption of a KRAS_BRAF complex were identified as those eliciting a decrease in the TR-FRET ratio relative to DMSO control wells. To determine the presenter-dependence of the compound-mediated KRAS-BRAF complex disruption, Cyclophilin A was left out of the initial incubation (see Table 5). To determine G12C specificity of the compound-mediated KRAS-BRAF complex disruption, wild-type KRAS was used instead of G12C KRAS (see Table 5).
Reagents and Instrument • Tagless CYPA; 519 μM in PBS buffer, pH 7.4 • GST BRAF; 110 μM in PBS buffer, pH 7.4 • His6-KRASG12C-GMP-PNP; 50 μM in PBS buffer, pH 7.4 • His6-KRASWT-GMP-PNP; 40 μM in PBS buffer, pH 7.4 • Anti-His Eu-W1024 (LANCE® Eu-W1024; Perkin Elmer) • Anti-GST allophycocyanin (Anti-GST IgG conjugated to SureLight®-Allophycocyanin; Perkin Elmer; Product Number AD0059G) • Test compounds, 10 mM in 100% DMSO • EnVision (Perkin Elmer) • Combi MultiDrop liquid dispenser with 8-channel small volume cassette • 384-well ProxiPlate (black)
Experimental Protocol • 1. Use Mosquito to dispense 100 nL/well of compounds (varying concentration in […]) into 384-well black ProxiPlate to make assay-ready-plate (ARP). • 2. Make assay buffer containing 25 mM Hepes pH 7.3, 100 mM NaCl, 5 mM MgCl2, 0.05% BSA, and 0.002% Tween-20. • 3. Make PRE-MIX A: delivers final concentrations of 50 nM of His6-KRas G12C-GTP (1-169) and 500 nM of tagless CypA (1-165) in assay buffer. • a. For presenter dependence experiments, omit addition of tagless CypA • b. For G12C/wt specificity experiments, substitute His6-KRas WT-GTP (1-169) for His6-KRas G12C-GTP (1-169) • 4. Use MultiDrop Combi to dispense PRE-MIX A into ARP, 7 μl/well. Incubate 3 hr at room temperature. • 5. Make PRE-MIX B: delivers final concentrations of 10 nM of anti-His Eu-W1024 and 50 nM of anti-GST APC. • 6. Use MultiDrop Combi to dispense PRE-MIX B into ARP, 3 μl/well. Shake briefly on Combi and incubate 1.5 hr at room temperature. • 7. Read on EnVision (Ex: 320 nm; Em1: 615 nm; Em2: 665 nm). • 8. Data is processed using Dotmatics. Curves are fit using a 4-parameter non-linear fit to determine the EC50 value for formation of the ternary complex.

Experiment [3] relates to pERK in H358 cells. The experiment can be described thus: pERK inhibition in H358 cells. The conditions noted are these: read-out: Cellular pERK inhibition, 4 hours treatment. On the procedure: H358 cells (5500 cells) derived from a human lung cancer were plated in a 96 well plate in media (100 uL, RPMI with 10% FBS). After 24 hours, cells were treated for 4 hours with compound or DMSO. Cells were washed twice with room temperature TBS (200 uL) and fixed for 20 minutes with 4% paraformaldehyde diluted with TBS (150 uL). Cells were washed four times for five minutes with 0.1% TritonX/TBS (150 uL) to permeabilize the membrane. Cells were incubated with TBS blocking buffer (100 uL) at room temperature for 60 minutes. Primary antibody (Phospho-p44/42 MAPK (Erk1/2) (Thr202/Tyr204) (D13.14.4E) XP® Rabbit mAb #4370, Cell Signaling Technology; 1:200) was added, and the cells were incubated overnight at 4 C. The cells were washed four times for five minutes with 0.1% Tween 20/TBS (150 uL). Secondary antibody (IRDye® 800CW Goat-Anti-Rabbit IgG, Li-Cor Biosciences; 1:1000) and DRAQ5™ (Invitrogen; 1:2000) was added, and the cells were incubated for 1 hour at room temperature. The cells were washed four times for five minutes with 0.1% Tween 20/TBS (150 uL) and scanned using the LICOR (700 and 800 nm).

For the compound `C=CC(=O)N1CCN([C@H](C(=O)N[C@H]2Cc3cc(O)cc(c3)-c3ccc4ncn(c4c3)CCOC(=O)[C@@H]3CCCN(N3)C2=O)C(C)C)C1=O`, in experiment [1], the Kd was less than 5 µM. Further, in experiment [2], the EC50 was more than 5 µM. The corresponding values for `C=CC(=O)N1CCN([C@H](C(=O)N[C@H]2Cc3cc(O)cc(c3)-c3cnc4ccn(c4c3)CCCOC(=O)[C@@H]3CCCN(N3)C2=O)C(C)C)C1=O` are less than 5 µM and more than 5 µM.

Consider `C=CC(=O)N1CC[C@H](C(=O)N(C)[C@H](C(=O)N[C@H]2Cc3cc(O)cc(c3)-c3ccc4c(c3)N(CC(C)(C)COC(=O)[C@@H]3CCCN(N3)C2=O)CC42COc3ccccc32)C(C)C)C1` (single isomer, unassigned) [402], for which the EC50 in experiment [2] was less than 0.5 µM. The IC50 in experiment [3] is less than 1 µM. Consider `C/C=C/S(=O)(=O)CC(=O)N(C)[C@H](C(=O)N[C@H]1Cc2cc(O)cc(c2)-c2ccc3ncn(c3c2)CCCOC(=O)[C@@H]2CCCN(N2)C1=O)C(C)C`, for which the Kd in experiment [1] is less than 5 µM. For the same compound, in experiment [2], the EC50 was more than 5 µM. Take `C=CS(=O)(=O)N1CCN([C@H](C(=O)N[C@H]2Cc3cc(O)cc(c3)-c3ccc4ncn(c4c3)CCCOC(=O)[C@@H]3CCCN(N3)C2=O)C(C)C)C(=O)C1`: in experiment [1], the Kd is less than 5 µM. Moreover, the EC50 in experiment [2] is more than 5 µM. With `CC(C)[C@H](NC(=O)C1CN(C(=O)CCl)C1)C(=O)N[C@H]1Cc2cc(O)cc(c2)-c2ccc3c(C#N)cn(c3c2)CC(C)(C)COC(=O)[C@@H]2CCCN(N2)C1=O`, in experiment [1], the Kd is 5 to 15 µM. Besides, the EC50 in experiment [2] is 0.5 to 5 µM. In the case of `C=CC(=O)N1CC[C@H](C(=O)N(C)[C@H](C(=O)N[C@H]2Cc3cc(O)cc(c3)-c3ccc4c(c3)N(CC(C)(C)COC(=O)[C@@H]3CCCN(N3)C2=O)CC42COc3ccccc32)C(C)C)C1` (single isomer, unassigned) [401], in experiment [2], the EC50 lay within 0.5 to 5 µM. For the same compound, the IC50 in experiment [3] is more than 10 µM. Consider `Cc1nc2ccc3cc2n1CC(F)(F)COC(=O)[C@@H]1CCCN(N1)C(=O)[C@@H](NC(=O)[C@H](C(C)C)N(C)C(=O)C1CN(C(=O)CCl)C1)Cc1cc(O)cc-3c1`, for which, in experiment [1], the Kd is less than 5 µM. For the same compound, the EC50 in experiment [2] lay within 0.5 to 5 µM. The corresponding values for `COc1cccc(-c2nc3ccc4cc3n2CCCOC(=O)[C@@H]2CCCN(N2)C(=O)[C@@H](NC(=O)[C@H](C(C)C)N(C)C(=O)C2CN(C(=O)CCl)C2)Cc2cc(O)cc-4c2)c1` are less than 5 µM and less than 0.5 µM. As to `C=CC(=O)N1CCN([C@H](C(=O)N[C@H]2Cc3cccc(c3)-c3ccc4ncn(c4c3)CCCOC(=O)[C@@H]3CCCN(N3)C2=O)C(C)C)C1=O`, the EC50 in experiment [2] was more than 5 µM. For `C=CC(=O)N1CC(C(=O)N(C)[C@H](C(=O)N[C@H]2Cc3cc(O)cc(c3)-c3ccc4c(C5=CCN(C)CC5)nn(c4c3)CC(C)(C)COC(=O)[C@@H]3CCCN(N3)C2=O)C(C)C)C1`, the Kd in experiment [1] was more than 15 µM. In addition, in experiment [2], the EC50 lay in the range of 0.5 to 5 µM. Take `C=CS(=O)(=O)N1CC(C(=O)N(C)[C@H](C(=O)N[C@H]2Cc3cc(O)cc(c3)-c3ccc4ncn(c4c3)CCCOC(=O)[C@@H]3CCCN(N3)C2=O)C(C)C)C1`: in experiment [1], the Kd was in the range of 5 to 15 µM. In addition, the EC50 in experiment [2] was 0.5 to 5 µM. Regarding `C=CC(=O)N1CCN([C@H](C(=O)N[C@H]2Cc3cc(O)cc(c3)-c3ccc4nccc(c4c3)CCOC(=O)[C@@H]3CCCN(N3)C2=O)C(C)C)C1=O`, the Kd in experiment [1] is less than 5 µM. `C=CC(=O)N1CCN([C@H](C(=O)N[C@H]2Cc3cc(O)cc(c3)-c3ccc4nc(C)n(c4c3)C(C)CCOC(=O)[C@@H]3CCCN(N3)C2=O)C(C)C)C1=O` (stereo partly drawn): in experiment [1], the Kd was less than 5 µM. Moreover, the EC50 in experiment [2] was more than 5 µM. The corresponding values for `CC(C)[C@@H](C(=O)N[C@H]1Cc2cc(O)cc(c2)-c2ccc3ncn(c3c2)CCCOC(=O)[C@@H]2CCCN(N2)C1=O)N(C)C(=O)CC1CC=CC1=O` (single isomer, unassigned) are more than 15 µM and more than 5 µM. On to `CC(C)[C@@H](C(=O)N[C@H]1Cc2cc(O)cc(c2)-c2ccc3c(C#N)cn(c3c2)CC(C)(C)COC(=O)[C@@H]2CCCN(N2)C1=O)N(C)C(=O)CN1CC=CC1=O`, for which the Kd in experiment [1] is 5 to 15 µM. Besides, the EC50 in experiment [2] is more than 5 µM. The corresponding values for `C=CC(=O)N1CCN([C@H](C(=O)N[C@H]2Cc3cc(O)cc(c3)-c3cc(C#N)c4ncn(c4c3)CCCOC(=O)[C@@H]3CCCN(N3)C2=O)C(C)C)C1=O` are less than 5 µM and more than 5 µM. As to `C=CC(=O)N1CCN([C@H](C(=O)N[C@H]2Cc3cc(O)cc(c3)-c3ccc4c(c3)N(CCCOC(=O)[C@@H]3CCCN(N3)C2=O)CCO4)C(C)C)C1=O`, in experiment [1], the Kd was less than 5 µM. The EC50 in experiment [2] is more than 5 µM. `CC(C)[C@@H](C(=O)N[C@H]1Cc2cc(O)cc(c2)-c2ccc3nc(-c4ccccn4)n(c3c2)CCCOC(=O)[C@@H]2CCCN(N2)C1=O)N(C)C(=O)C1CN(C(=O)CCl)C1`: the Kd in experiment [1] is less than 5 µM. In addition, in experiment [2], the EC50 was more than 5 µM. The corresponding values for `C=CC(=O)N1CC(C(=O)N(C)[C@H](C(=O)N[C@H]2Cc3cc(O)cc(c3)-c3ccc4ncn(c4c3)CCCOC(=O)[C@@H]3CCCN(N3)C2=O)C(C)C)C1` are 5 to 15 µM and more than 5 µM. For `CC(C)[C@@H](C(=O)N[C@H]1Cc2cc(O)cc(c2)-c2ccc3nc(-c4cccc(C#N)c4)n(c3c2)CCCOC(=O)[C@@H]2CCCN(N2)C1=O)N(C)C(=O)C1CN(C(=O)CCl)C1`, the Kd in experiment [1] is 5 to 15 µM. Besides, the EC50 in experiment [2] lay within 0.5 to 5 µM.

Take `C=CC(=O)N1CCN([C@H](C(=O)N[C@H]2Cc3cc(O)cc(c3)-c3ccc4c5cnccc5n(c4c3)CCCOC(=O)[C@@H]3CCCN(N3)C2=O)C(C)C)C1=O`: in experiment [1], the Kd was less than 5 µM. The EC50 in experiment [2] is 0.5 to 5 µM.

The values above are taken from US20240139185A1, “COMPOUNDS THAT PARTICIPATE IN COOPERATIVE BINDING AND USES THEREOF” (Revolution Medicines, Inc., priority 2018, published 2024).
